Reference: patent publication US7309713B2, “Use of the non-opiate analgesic drug flupirtine for the treatment of overactive bladder and associated diseases including urge incontinence, urinary flow problems as a result of prostate hyperplasia and irritable bowel syndrome” (priority 2005, dated 2007)
Several values for one entry are separate records, joined by “and”; a condition that tells them apart may be missing. Equal values may be shown once. Entries after “also recorded” stand apart in the source; their conditions may differ.

How the values were obtained:
[1] = tested on: volume-induced rhythmic urinary bladder contractions; experiment: volume-induced rhythmic urinary bladder contractions in urethane anaesthetised rats (rat model of overactive bladder); type: in vivo, Sprague Dawley rat; conditions: for presence/absence of bladder contractions (block grade), individual animal: 55 min period, Table 4; for mean voiding frequency decreased by: decrease; for mean pressure peaks of the amplitude diminished/reduced by: reduction
Source text: In the search for new drugs compounds are of interest which affect the central nervous system circuits involved in micturation as well as the peripheral nerves resulting in a decrease in the frequency of the voiding reflex without any effect on bladder contractility. […] The method utilises spontaneous, volume-induced contractions of the urinary bladder in anaesthetised rats and was developed and first described by Dray (J. Pharmacol. Meth. 13:157-165, 1985) to assess the central activity of substances with opioid properties on bladder function. As this model clearly mimics the interplay between smooth muscle function and neuronal control thereof, this model can be also used to predict drug effects in a different disease, i.e. irritable bowl syndrome (IBS).
Aim of the study: To characterise the effects of the analgesic flupirtine maleate on the bladder function we used the model volume-induced contractions of urinary bladder in urethane anaesthetised rats. […] The compounds at the dose range 0.1-10 mg/kg were intraduodenally administered to anaesthetised rats. The intraduodenal route was chosen to mimic the oral route and to avoid the use of solvents necessary for intravenous administration.
• Species: Sprague Dawley rat • Sex: Female • Body weight: 200-270 g • Breeder: Charles River, Sulzfeld • Food/Tap water: pellets, ssniff M/R15, ad libitum, Spezialdiäten GmbH, Soest/Wesffalen, FRG • Conditions in animal housing: Rats were kept conventionally in groups of 6 in macrolon cages No. 4. • Room temperature: 20-24° C. • Relative humidity: 40-70%, deviations from the maximum range caused during cleaning procedure are possible • Light/Dark rhythm: 12/12 h light/dark cycle, light on at 6:00 a.m.
The food was withdrawn 16 hours before intraduodenal drug administration. Tap water was available ad libitum.
Flupirtine maleate or oxybutynin hydrochloride were suspended in hydroxyethylcellulose (0.5%) in demineralised water. The substances were ground in a mortar with pistil. The suspensions were placed on a magnetic stirrer before and during dosing procedures. The substances were freshly prepared in the morning and applied intraduodenally in a volume of 0.4 ml/100 g body weight. Control rats received hydroxyethylcellulose (0.5%) i.d.
The filling material, consisting of small globules, was ground in a mortar with pistil. Thereafter the grounded material was suspended in hydroxyethylcellulose (0.5%) in demineralised water. The suspensions were placed on a magnetic stirrer before and during dosing procedures for 10 minutes. The suspensions were freshly prepared in the morning and applied intraduodenally in a volume of 0.4 ml/100 g body weight to rats. Control rats received the same amount of hydroxyethylcellulose (0.5%) i.d.
The continuous registration lasted 1 hr. […] The frequency was evaluated for 10 min before (baseline) and within the observation period in intervals of 10 minutes starting 5, 20, 35 and 50 min after drug administration. For intraduodenal dosing, drugs were administered via a duodenal polyethylene tube to animals in aqueous suspension of 0.5% hydroxyethylcellulose.

[2] = tested on: mean arterial blood pressure; experiment: mean arterial blood pressure recorded in the urethane anaesthetised rats of the bladder model; conditions: for mean BP, change in percent from base value (Δ %): group mean; for mean arterial blood pressure decreased by: decrease
[3] = 0.1 mg/kg i.d. single dose, group mean
[4] = 0.1 mg/kg i.d., individual animals, hydrochloride
[5] = 1.0 mg/kg i.d. single dose, group mean
[6] = 1.0 mg/kg i.d., individual animals, hydrochloride
[7] = 3.0 mg/kg i.d. single dose, group mean
[8] = 3.0 mg/kg i.d., individual animals
[9] = 3.0 mg/kg i.d., individual animals, hydrochloride
[10] = 10 mg/kg i.d. single dose, group mean
[11] = 10 mg/kg i.d., individual animals
[12] = 10 mg/kg i.d., individual animals, hydrochloride

CNCC[C@H](Oc1cccc2ccccc12)c1cccs1.Cl [duloxetine hydrochloride, (+)-(S)-N-Methyl-N-[3-(naphthalen-1-yloxy)-3-(2-thienyl)propyl]amine hydrochloride]
block X/n (animals with blockade of bladder contraction) ([1]; 0.1 mg/kg i.d. single dose): 3/3 | amplitude, change in percent from base value (Δ %) [1, 3]: +1.7% | frequency Post (20-60 min), mean [1, 3]: 5.7-6.0 n/10 min | frequency, change in percent from base value (Δ %) [1, 3]: −47% | block, blockade duration (group, min-max) ([1]; 0.1 mg/kg i.d. single dose, hydrochloride): 2.5 to 5 min | block, blockade duration (group, min-max) ([1]; 0.1 mg/kg i.d. single dose, listed as Duloxetine hydrochloride, hydrochloride): 2 to 5 min | presence/absence of bladder contractions (block grade), individual animal ([1]; 0.1 mg/kg i.d.): (+) (+ or (+) = contractions abolished during 5-10 min time period) | mean pressure peaks of the amplitude increased by ([1]; 0.1 mg/kg i.d., increase): 1.7% | decrease in frequency, individual animal [1, 4]: in frequency by 43%; also recorded: by 50%, onset of repetitive bursts; also recorded: mean frequency by 39% | duration of block, individual animal [1, 4]: ≤ 5 min and ≤ 3 min and max. 2.5 min, initial short block and (2 min), afterwards decrease in | number of episodes of block per animal [1, 4]: 2 and 4 and 3 | number of episodes of block per animal ([1]; 0.1 mg/kg i.d., individual animals, listed as Duloxetine hydrochloride, hydrochloride): 2-4 | mean voiding frequency decreased by ([1]; 0.1 mg/kg i.d., text, listed as Duloxetine hydrochloride, hydrochloride): 47% | mean voiding frequency decreased by ([1]; 0.1 mg/kg i.d., text, listed as duloxetine, hydrochloride): about 47% | block X/n (animals with blockade of bladder contraction) ([1]; 1.0 mg/kg i.d. single dose): 3/3 | block, blockade duration (group, min-max) ([1]; 1.0 mg/kg i.d. single dose): 2.5 to 10 min | amplitude, change in percent from base value (Δ %) [1, 5]: −5.4% | frequency, change in percent from base value (Δ %) [1, 5]: −60% | presence/absence of bladder contractions (block grade), individual animal ([1]; 1.0 mg/kg i.d.): (+) (+ or (+) = contractions abolished during 5-10 min time period) | mean voiding frequency decreased by ([1]; 1 mg/kg i.d.): 60% | decrease in the height of the amplitude, individual animal ([1]; 1.0 mg/kg i.d., individual animals): remained unchanged | decrease in frequency, individual animal [1, 6]: 70% and frequency by 55%, occurrence and mean frequency by 50% and mean frequency by 70%, | duration of block, individual animal [1, 6]: 2.5 min and ≤ 10 min and 2 min and ≤ 7 min, marked decrease in | number of episodes of block per animal [1, 6]: 1-6 and 3 and 5-6 | mean pressure peaks of the amplitude diminished/reduced by ([1]; 1 mg/kg i.d.): 5.4% | animals with sporadic increase in the frequency of the voiding ([1]; 3.0 mg/kg i.d.): 2/3 | block X/n (animals with blockade of bladder contraction) ([1]; 3.0 mg/kg i.d. single dose): 3/3 | block, blockade duration (group, min-max) ([1]; 3.0 mg/kg i.d. single dose): 5 to 28 min | amplitude, change in percent from base value (Δ %) [1, 7]: −14% | frequency Post (20-60 min), mean [1, 7]: 9.0-9.5 n/10 min | frequency, change in percent from base value (Δ %) [1, 7]: +2.8% | presence/absence of bladder contractions (block grade), individual animal ([1]; 3.0 mg/kg i.d., hydrochloride): (+) (+ or (+) = contractions abolished during 5-10 min time period); also recorded: ++ (++ = contractions abolished during 10-30 min time period) | mean frequency averaged over all animals increased by ([1]; 3 mg/kg i.d., increase): 2.8% | decrease in frequency, individual animal [1, 8]: mean frequency decreased by 15% | increase in frequency, individual animal [1, 8]: mean frequency by 40%, slight | decrease in the height of the amplitude, individual animal [1, 9]: remained unchanged; also recorded: amplitude by 24%, decrease in; also recorded: of the amplitude unchanged | duration of block, individual animal [1, 9]: 5 min and ≤ 28 min and 7 to 8 min | number of episodes of block per animal [1, 9]: 1-2 and 2 | mean pressure peaks of the amplitude diminished/reduced by ([1]; 3 mg/kg i.d.): 14% | animals with sporadic increase in the frequency of the voiding ([1]; 10 mg/kg i.d.): 4/5 | block X/n (animals with blockade of bladder contraction) ([1]; 10 mg/kg i.d. single dose): 4/5 | block, blockade duration (group, min-max) ([1]; 10 mg/kg i.d. single dose): 2 to 10 min | amplitude Post (30-60 min), mean [1, 10]: 20.4-26.0 mm Hg | amplitude, change in percent from base value (Δ %) [1, 10]: −3.4% | frequency, change in percent from base value (Δ %) [1, 10]: −4.8% | presence/absence of bladder contractions (block grade), individual animal ([1]; 10 mg/kg i.d., hydrochloride): (+) (+ or (+) = contractions abolished during 5-10 min time period); also recorded: + (+ or (+) = contractions abolished during 5-10 min time period) | mean voiding frequency decreased by ([1]; 10 mg/kg i.d.): 4.8% | decrease in frequency, individual animal [1, 11]: frequency by 11%, thereafter | reduction in the amplitude, individual animal [1, 11]: in the amplitude by 5% | duration of block, individual animal [1, 12]: 8 min and max. 2 min, during first 30 min and 7 min (2×) and ≤ 10 min and min, after initial block (6 min) | increase in frequency, individual animal [1, 12]: 110%, after 35th min reduction and maximum by −50%, irregular and by 33% during 20-30th min | number of episodes of block per animal [1, 12]: 3 (2×) and 2 | increase in frequency, individual animal ([1]; 10 mg/kg i.d., individual animals, listed as duloxetine, hydrochloride): 110% | mean pressure peaks of the amplitude diminished/reduced by ([1]; 10 mg/kg i.d.): 3.4% | mean BP, change in percent from base value (Δ %) ([2]; 0.1 mg/kg i.d. single dose): −15% | mean arterial blood pressure decreased by ([2]; 0.1 mg/kg i.d.): 15% | mean BP, change in percent from base value (Δ %) ([2]; 1.0 mg/kg i.d. single dose): −1.8% | mean arterial blood pressure decreased by ([2]; 1 mg/kg i.d.): 1.8% | mean BP, change in percent from base value (Δ %) ([2]; 3.0 mg/kg i.d. single dose): −11% | decrease in mean blood pressure, individual animal ([2]; 3.0 mg/kg i.d., animal 221): mean blood pressure by 13% | mean arterial blood pressure decreased by ([2]; 3 mg/kg i.d.): 11% | mean BP, change in percent from base value (Δ %) ([2]; 10 mg/kg i.d. single dose): +21% | mean arterial blood pressure increased by ([2]; 10 mg/kg i.d., increase): 21% | fall of mean blood pressure to ([2]; 10 mg/kg i.d., one rat (animal 208)): 0 mm Hg | death of the animal ([2]; 10 mg/kg i.d., one rat (animal 208), 60th min): exitus
